The source of these data is US20180008587A1, “THIOHYDANTOIN ANDROGEN RECEPTOR ANTAGONISTS FOR THE TREATMENT OF CANCER” (Jaressen Pharmaceutica NV, priority 2016, published 2018).

Amino acid sequences for entries named in this document (tags omitted).
UniProt P10275, whole entry: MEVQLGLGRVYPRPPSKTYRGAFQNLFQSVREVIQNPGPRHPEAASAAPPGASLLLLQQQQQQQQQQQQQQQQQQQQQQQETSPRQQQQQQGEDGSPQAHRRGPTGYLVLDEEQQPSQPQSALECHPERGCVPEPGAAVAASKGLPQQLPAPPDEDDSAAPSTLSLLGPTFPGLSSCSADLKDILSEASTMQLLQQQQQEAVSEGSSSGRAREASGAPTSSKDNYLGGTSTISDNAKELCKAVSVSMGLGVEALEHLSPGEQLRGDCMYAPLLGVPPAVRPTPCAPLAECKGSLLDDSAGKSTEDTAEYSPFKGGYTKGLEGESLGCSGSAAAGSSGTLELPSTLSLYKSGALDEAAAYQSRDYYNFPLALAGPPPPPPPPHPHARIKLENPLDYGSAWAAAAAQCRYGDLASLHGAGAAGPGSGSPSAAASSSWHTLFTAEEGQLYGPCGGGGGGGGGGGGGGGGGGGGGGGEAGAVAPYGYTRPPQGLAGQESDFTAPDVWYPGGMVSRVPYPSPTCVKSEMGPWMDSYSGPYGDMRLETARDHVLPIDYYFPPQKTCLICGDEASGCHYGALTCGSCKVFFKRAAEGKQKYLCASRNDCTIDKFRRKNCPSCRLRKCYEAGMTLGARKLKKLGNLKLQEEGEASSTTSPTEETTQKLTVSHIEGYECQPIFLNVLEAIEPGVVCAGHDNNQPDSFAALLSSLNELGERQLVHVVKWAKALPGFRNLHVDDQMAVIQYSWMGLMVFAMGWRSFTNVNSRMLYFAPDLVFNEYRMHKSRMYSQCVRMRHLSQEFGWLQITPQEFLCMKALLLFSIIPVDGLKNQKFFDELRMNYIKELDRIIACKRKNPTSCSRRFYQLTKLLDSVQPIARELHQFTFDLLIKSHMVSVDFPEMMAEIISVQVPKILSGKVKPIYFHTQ

Where only a bound is given, the exact number is not on record here.

In assay [1] the target is T1, wild-type Androgen Receptor (AR-wt) (Homo sapiens, UniProt P10275). In words: LNCaP-AR-wt AG reporter assay (ARE firefly luciferase, agonist mode). The assay is classed as cell-based. For orientation: In a reporter assay the amount or activity of a reporter protein is the signal.
The target in assay [2] is T1, wild-type Androgen Receptor (AR-wt). In words: LNCaP-AR-wt ANT reporter assay (ARE firefly luciferase, antagonist mode). Type of assay: cell-based. The following applies: 400 pM R-1881 challenge, −Log10(IC50 [Molar]).

On to `CNC(=O)c1ccc(N2C(=S)N(c3cnc(C#N)c(C)c3)C(=O)C23CCCC3)cc1F`, for which, in assay [1] (agonist mode, −Log10(EC50 [Molar])), the “LNCaP-AR-wt AG pEC50” value is recorded as <4.82. Also, in assay [1] (maximum % stimulation (agonist response) over tested concentration range), the “LNCaP-AR-wt AG MAX % Stim” value amounted to 1.2%. Besides, in assay [2], the “LNCaP-AR-wt ANT pIC50” value stood at 6.38.
